Data on one substance can be found in patent US20140315797A1, “Novel N-Terminally Modified Insulin Derivatives” (priority 2010, published 2014).

The subject of this data set is duodenum lumen enzymes. Kind of data set: Degradation of insulin analogs using duodenum lumen enzymes. The conditions noted are these: degradation half time divided by that of reference insulin; rat duodenum enzymes, pH 7.4, 37° C.

Turning to “A1(N,N-Dimethyl), A14E, B1(N,N-dimethyl), desB27, B29K(N^εoctadecanedioyl-gGlu-2xOEG), desB30 human insulin [Example 6]”, the “Duodenum degradation. Relative stability vs. A14E, B25H, desB30 human insulin” value stood at 3.8.
